The structures appear in SMILES notation. The entries are a selection whose mix differs from that of the whole data set. Active and inactive are the calls of the source. Cut-off read from the data, not from the text of the source: active = inhibition above about 5% (passing the limit was not always enough); inactive = the rest.

Chains of the proteins cited; added tags and fusions are not shown. Lines headed by an entry give the natural chain unless they say otherwise; changes in a name come on top.
UniProt P00519, whole entry, looked up: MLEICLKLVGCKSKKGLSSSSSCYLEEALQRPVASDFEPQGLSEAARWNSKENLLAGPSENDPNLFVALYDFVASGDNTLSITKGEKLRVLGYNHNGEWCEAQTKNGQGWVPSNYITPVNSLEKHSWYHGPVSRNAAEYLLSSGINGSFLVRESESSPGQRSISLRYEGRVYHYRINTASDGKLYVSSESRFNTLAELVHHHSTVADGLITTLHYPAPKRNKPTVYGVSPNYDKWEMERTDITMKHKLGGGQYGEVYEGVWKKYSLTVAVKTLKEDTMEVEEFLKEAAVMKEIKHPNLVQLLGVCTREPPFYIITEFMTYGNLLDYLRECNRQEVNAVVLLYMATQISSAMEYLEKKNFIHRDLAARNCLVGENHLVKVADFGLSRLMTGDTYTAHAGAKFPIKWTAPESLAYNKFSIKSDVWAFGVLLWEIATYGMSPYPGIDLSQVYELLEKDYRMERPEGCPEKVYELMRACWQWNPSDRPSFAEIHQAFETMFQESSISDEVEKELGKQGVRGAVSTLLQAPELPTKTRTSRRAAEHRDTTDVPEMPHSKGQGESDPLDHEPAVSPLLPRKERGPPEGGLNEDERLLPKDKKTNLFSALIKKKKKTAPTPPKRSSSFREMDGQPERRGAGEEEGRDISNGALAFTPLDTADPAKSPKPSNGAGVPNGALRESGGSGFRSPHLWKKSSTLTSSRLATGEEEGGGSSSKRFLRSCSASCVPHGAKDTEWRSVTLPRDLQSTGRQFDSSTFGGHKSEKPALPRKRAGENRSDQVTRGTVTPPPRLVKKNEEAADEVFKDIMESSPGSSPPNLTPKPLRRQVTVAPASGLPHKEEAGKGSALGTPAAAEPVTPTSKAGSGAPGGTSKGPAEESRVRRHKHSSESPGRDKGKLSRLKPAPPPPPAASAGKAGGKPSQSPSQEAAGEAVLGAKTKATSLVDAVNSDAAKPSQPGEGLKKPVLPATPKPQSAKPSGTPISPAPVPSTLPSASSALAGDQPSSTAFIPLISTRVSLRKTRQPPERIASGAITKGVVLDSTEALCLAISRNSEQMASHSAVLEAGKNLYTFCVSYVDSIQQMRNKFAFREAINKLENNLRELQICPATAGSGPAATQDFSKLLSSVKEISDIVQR
UniProt Q13671: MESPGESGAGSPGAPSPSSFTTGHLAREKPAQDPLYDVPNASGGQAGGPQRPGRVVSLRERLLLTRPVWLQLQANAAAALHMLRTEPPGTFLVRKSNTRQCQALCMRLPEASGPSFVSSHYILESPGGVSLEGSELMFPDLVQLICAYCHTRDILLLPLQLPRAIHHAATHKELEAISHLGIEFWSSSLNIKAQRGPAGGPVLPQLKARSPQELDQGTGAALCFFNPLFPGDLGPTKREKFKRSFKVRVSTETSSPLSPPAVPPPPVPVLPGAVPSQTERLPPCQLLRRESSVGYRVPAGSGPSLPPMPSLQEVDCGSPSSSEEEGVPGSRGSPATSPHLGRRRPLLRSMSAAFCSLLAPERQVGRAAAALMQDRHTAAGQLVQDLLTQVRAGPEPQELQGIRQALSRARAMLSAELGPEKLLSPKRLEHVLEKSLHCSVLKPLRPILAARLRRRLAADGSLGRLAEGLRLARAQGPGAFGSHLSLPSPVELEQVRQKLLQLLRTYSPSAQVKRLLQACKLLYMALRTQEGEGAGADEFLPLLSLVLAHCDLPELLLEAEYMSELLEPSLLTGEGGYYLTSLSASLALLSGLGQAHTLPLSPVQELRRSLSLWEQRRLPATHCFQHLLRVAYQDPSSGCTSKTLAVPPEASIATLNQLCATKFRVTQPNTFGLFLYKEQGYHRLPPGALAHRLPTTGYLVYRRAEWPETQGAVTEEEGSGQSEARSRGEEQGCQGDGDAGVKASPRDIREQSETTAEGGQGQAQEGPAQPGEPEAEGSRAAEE

The results in this text go back to PubChem BioAssay AID588664 (The Scripps Research Institute Molecular Screening Center, 2011).

The target in this assay is Tyrosine-protein kinase ABL1 (Homo sapiens) + Ras and Rab interactor 1 (Homo sapiens) (UniProt P00519+Q13671). As to the kind of experiment: inhibitors of Rin1-Abl protein binding, primary screen, biochemical, TR-FRET (AID 588664). As to conditions: at 7.35 µM, active compounds read high. (In general: TR-FRET usually uses a lanthanide donor and a delayed reading to cut background.)
As usually defined, the inhibition is the drop in the measured response relative to a control, in per cent. On to `N#C/C(=C\c1ccc(N(CCBr)CCBr)cc1)C(N)=O`, for which the inhibition was inactive: -3.31%.
With `CC(=O)c1ccc(N2CC2c2ccncc2)cc1` (configuration not stated), the inhibition was inactive: 1.19%.
The result for `CC(C)(C)C(=O)NC(Sc1ccccc1)C(Cl)(Cl)Cl` (configuration not stated) reads inactive: 1.21%; that for `CCc1cc(O)c([N+](=O)[O-])c(C)c1[N+](=O)[O-]`, inactive: -0.9%.
For the compound `CCOc1ccc(C2=NCC(CBr)S2)cc1` (configuration not stated), the inhibition was inactive: 1.62%.
Turning to `O=P1(Nc2nc3ccc(Cl)cc3s2)COc2ccccc2O1` (configuration not stated), the inhibition was inactive: 1.61%.
The result for `c1nnnn1CCn1cnnn1` reads inactive: 2.06%; that for `CC(C)C(=O)NC(Sc1ccccc1)C(Cl)(Cl)Cl` (configuration not stated), inactive: -5.67%.
Regarding `O=P(Nc1nccs1)(c1ccccc1)c1ccccc1`, the inhibition was inactive: 0.37%.
The result for `O=C(OC1CN2CCC1CC2)c1cccc(Cl)c1` (configuration not stated) reads inactive: 1.11%; that for `Nc1ccc([As](=O)(O)c2ccc([N+](=O)[O-])cc2)cc1`, inactive: -2.57%.
The result for `C(Cc1nn[nH]n1)Cc1nn[nH]n1` reads inactive: -0.27%.
For the compound `O=[As](O)(c1ccccc1)c1ccc(O)cc1`, the inhibition is inactive: 1.86%.
The result for `O=[N+]([O-])c1ccc(O)c(/C=N/Nc2ccc([N+](=O)[O-])cc2[N+](=O)[O-])c1` reads inactive: -0.97%; that for `CC(=O)NC(SC(=S)N(C)C)C(Cl)(Cl)Cl` (configuration not stated), inactive: -3.47%; that for `O=[N+]([O-])c1ncn(CCn2cnc([N+](=O)[O-])n2)n1`, inactive: -4.18%.
With `C[C@H]1OP(=O)(Oc2ccccc2)[C@H](O)[C@H](O)[C@H]1N=[N+]=[N-]` (some centres not stated), the inhibition was inactive: 2.3%.
`O=P(Nc1nc2ccccc2s1)(c1ccccc1)c1ccccc1`: the inhibition was inactive: -0.1%.
Then `O=P(Nc1ccccn1)(c1ccc(Br)cc1)c1ccc(Br)cc1`, with inactive: 0.97%; and `CN(C)C1(CNC(=O)c2ccc(Cl)c(S(N)(=O)=O)c2)CCCCC1`, with inactive: -1.37%; and `Nc1ccc(CCCCOc2ccccc2)cc1`, with inactive: 4%.
Then `COc1ccc(N)c([N+](=O)[O-])c1[N+](=O)[O-]`, with inactive: -8.08%; and `Nc1cccc([As](=O)(O)c2ccccc2)c1`, with inactive: -1.18%.
The result for `O=P1(Nc2ccc(Br)cn2)COc2ccccc2OC1` reads inactive: -5.09%; that for `NS(=O)(=O)c1cccc(NC(=O)COC(=O)C(O)(c2ccccc2)c2ccccc2)c1`, inactive: 4.13%; that for `Cc1ccc(OCC(=O)OC2CN3CCC2CC3)cc1` (configuration not stated), inactive: 0.29%.
Take `O=[As](O)(c1cccs1)c1cccs1`: the inhibition was inactive: 0.03%.
Then `Cc1ccc(S(=O)(=O)N(CCCN)CCCc2c(C)nc(N)[nH]c2=O)cc1`, with inactive: 1.69%; and `O=P1(Nc2ncccn2)COc2ccccc2OC1`, with inactive: 3.05%.
As for `CN(C)C1(CNC(=O)c2ccc(S(C)(=O)=O)cc2)CCCCC1`, the inhibition is inactive: -3.14%.
`CCCC1OP(=O)(Nc2ccccc2)OCC1CC` (configuration not stated): the inhibition was inactive: 4.46%.
Then `O=C(/C=C/c1ccccc1)OC1CN2CCC1CC2` (configuration not stated), with inactive: 2.59%.
Then `CC1CCC(C(C)C)C(OP(=O)(Nc2ccccn2)c2ccccc2)C1` (configuration not stated), with inactive: 0.82%; and `Cc1ccc(C(=O)OC2CN3CCC2CC3)cc1` (configuration not stated), with inactive: 2.94%; and `Cc1nn(-c2ccccc2)c2c1P(=O)(N1CCOCC1)N(C)C(c1ccccc1)=N2` (configuration not stated), with inactive: -0.63%.
The result for `CC(C)/C=N\N=C(\N)N[N+](=O)[O-]` reads inactive: -1.63%.
Turning to `CN(C(=O)Cc1ccc(Cl)c(Cl)c1)[C@@H]1CCCC[C@H]1N1CCCC1`, the inhibition was inactive: -2.14%.
The result for `CC1(CBr)Cn2c(nc3ccccc3c2=O)S1` (configuration not stated) reads inactive: 2.49%; that for `COc1ccccc1CNC(=O)COC(=O)C(O)(c1ccccc1)c1ccccc1`, inactive: 3.39%.
The result for `CC(C)(C)C(=O)NC(Sc1ncccn1)C(Cl)(Cl)Cl` (configuration not stated) reads inactive: -0.74%; that for `O=P1(N(CCCl)CCCl)NCCC(C(F)(F)F)O1` (configuration not stated), inactive: 1.59%.
The result for `Clc1n[nH]nc1-c1nn[nH][15n]1` reads inactive: -0.73%.
On to `CCOP(=O)(NC(=NC(C)c1ccccc1)NC(C)c1ccccc1)OCC` (configuration not stated), for which the inhibition is inactive: 3.69%.
The result for `O=P1(Nc2ccccn2)COc2ccccc2OC1` reads inactive: 1.44%.
On to `CCC1=CC2Cc3nc4ccc(Cl)cc4c(N)c3C(C1)C2` (configuration not stated), for which the inhibition was inactive: -2.37%.
`CN(CCCl)Cc1cc(Cl)c(NC2=NCCN2)c(Cl)c1`: the inhibition is inactive: -0.3%.
On to `CCOP(=O)(Nc1ccc(C)cn1)OCC`, for which the inhibition was inactive: 0.7%.
Take `CCOP(=O)(Nc1cccc2ccccc12)OCC`: the inhibition was inactive: -1.36%.
Then `COc1cc(C2NCCC3(OCCO3)C2(C)C)cc(OC)c1OC` (configuration not stated), with inactive: 3.94%.
On to `Cc1ccc(NCCc2c([N+](=O)[O-])cc([N+](=O)[O-])cc2[N+](=O)[O-])cc1`, for which the inhibition is inactive: -5.46%.
For the compound `Nc1cccc2c([As](=O)(O)O)cccc12`, the inhibition is inactive: 0.55%.
Take `CCCOP(=S)(Nc1nc(N)cc(=O)[nH]1)OCCC`: the inhibition is inactive: -1.71%.
Then `O=[As](O)(c1cccc(O)c1)c1cccc(O)c1`, with inactive: 1.89%.
Turning to `Cc1cccc(OCC(=O)OC2CN3CCC2CC3)c1` (configuration not stated), the inhibition was inactive: -5.48%.
The result for `O=C(OC1CN2CCC1CC2)c1ccc(Cl)cc1` (configuration not stated) reads inactive: 3.24%; that for `CS(=O)(=O)c1ccc(Cl)c(NC(=O)COC(=O)C(O)(c2ccccc2)c2ccccc2)c1`, inactive: -0.28%.
In the case of `COc1cc(C(=O)NCC2(N3CCOCC3)CCCCC2)cc(Cl)c1OC(C)C`, the inhibition is inactive: 1.86%.
Consider `O=[As](O)(O)c1cccnc1`, for which the inhibition was inactive: -2.97%.
Take `CCOP1(=S)c2c(C)nn(CCC#N)c2N=C(c2ccc(F)cc2)N1C` (configuration not stated): the inhibition is inactive: 2.31%.
The result for `CN(C(=O)Cc1ccccc1)[C@@H]1CC[C@]2(CCCO2)C[C@H]1N1CCCC1` reads inactive: -4.16%.
The result for `N#CCCN(C(=O)COC(=O)C(O)(c1ccccc1)c1ccccc1)c1ccc(F)cc1` reads inactive: 1.6%; that for `CN(C(=O)Cc1ccc(Cl)c(Cl)c1)[C@H]1CC[C@@]2(CCCO2)C[C@@H]1N1CCCC1`, inactive: 4.23%.
For `CN(C)C(=O)c1cc([N+](=O)[O-])cc2c1-c1c(cc([N+](=O)[O-])cc1[N+](=O)[O-])C2=O`, the inhibition was inactive: -6.04%.
As for `O=[N+]([O-])c1ccc2c(c1)nnn2O`, the inhibition is inactive: 2.01%.
Then `NC(=O)Nc1ccc([As](=O)(O)O)cc1`, with inactive: 1.07%.
Then `Nc1ccccc1[As](=O)(O)c1ccccc1`, with inactive: 1.59%; and `O=C(O)COc1ccc([As](=O)(O)O)cc1[N+](=O)[O-]`, with inactive: 2.04%; and `O=P(Nc1nccs1)(c1ccccc1)c1nc2ccccc2s1` (configuration not stated), with inactive: -0.99%.
As to `O=P(Nc1nccs1)(Oc1ccccc1)Oc1ccccc1`, the inhibition was inactive: 2.33%.
For the compound `CCOP1(=S)c2c(C)nn(CCC#N)c2N=C(c2ccccc2F)N1C` (configuration not stated), the inhibition is inactive: -2.2%.
With `CS(=O)(=O)c1cc([N+](=O)[O-])c2no[n+]([O-])c2c1`, the inhibition was inactive: -5.65%.
Regarding `O=[N+]([O-])c1cc([N+](=O)[O-])c(-c2ccn[nH]2)s1`, the inhibition is inactive: -1.65%.
`CCN(CC)C(=S)SC(NC=O)C(Cl)(Cl)Cl` (configuration not stated): the inhibition was inactive: 1.62%.
Then `O=C(OC1CN2CCC1CC2)c1cccc2[nH]cnc12` (configuration not stated), with inactive: 0.95%.
Then `CC(C)NC(=O)NP(=O)(Oc1ccccc1)Oc1ccccc1`, with inactive: 5.42%; and `ClCCSc1nnc(-c2cccnc2)o1`, with inactive: 3.34%.
Then `CC(C)c1ccc(OP(=O)(Nc2ccccn2)Oc2ccccc2F)cc1` (configuration not stated), with inactive: 2.72%; and `COC(=O)C1(C)COP(=O)(N2CCCCCC2)OC1` (configuration not stated), with inactive: 1.88%.
Take `Cc1ccc(OP(=O)(Nc2ccc([N+](=O)[O-])cn2)Oc2ccc(C)cc2)cc1`: the inhibition was inactive: -2.02%.
Regarding `Cc1ccc2nc3c(c(C)c2c1)CC(C(Cl)Cl)S3` (configuration not stated), the inhibition was inactive: -5.47%.
For the compound `COc1cc(C(=O)NCC2(N3CCOCC3)CCCCC2)ccc1OCC(C)C`, the inhibition is inactive: 3.94%.
Then `O=[N+]([O-])c1ccc(-c2cc([N+](=O)[O-])c(O)c([N+](=O)[O-])c2)cc1`, with inactive: 1.79%; and `C[As](=O)(O)c1cccc(C(=O)O)c1`, with inactive: 0.4%; and `O=[As](O)(c1ccc(O)cc1)c1ccccc1O`, with inactive: -2.13%.
On to `O=[N+]([O-])c1cc(Oc2ccc([N+](=O)[O-])cc2C(F)(F)F)cc([N+](=O)[O-])c1`, for which the inhibition is inactive: 1.81%.
As for `COc1ccc(N/C(=N/P(=O)(N2CCOCC2)N2CCOCC2)N2CCOCC2)cc1`, the inhibition was inactive: 0.19%.
Regarding `O=P1(N(CCCl)CCCl)Nc2ccccc2N1`, the inhibition was inactive: 4.78%.
The result for `O=P1(N(CCCl)CCCl)OCCCN1CCCl` (configuration not stated) reads inactive: -2.33%.
With `COc1cc(I)ccc1[As](=O)(O)O`, the inhibition was inactive: -4.01%.
As for `COc1ccc2nc(NP(=O)(c3ccccc3)c3ccccc3)sc2c1`, the inhibition was inactive: -1.65%.
Then `Cc1c2c(nc3ccccc13)SC(C(Cl)Cl)C2` (configuration not stated), with inactive: 1.52%.
The result for `Cc1cc(=O)[nH]c(N[N+](=O)[O-])n1` reads inactive: 0.33%; that for `O=C(OC1CN2CCC1CC2)C12CC3CC(CC(C3)C1)C2` (configuration not stated), inactive: 1.14%; that for `CCC(C)N(CC(C)C)C(=S)SC(NC(C)=O)C(Cl)(Cl)Cl` (configuration not stated), inactive: 1.44%.
Then `CSc1ccc(Nc2c([N+](=O)[O-])cc([N+](=O)[O-])cc2[N+](=O)[O-])cc1`, with inactive: -5.52%.
For the compound `O=C(OC1CN2CCC1CC2)c1cccc([N+](=O)[O-])c1` (configuration not stated), the inhibition was inactive: -1.74%.
Take `CCOC(=O)c1ccc(NC(=O)C(C)(CCl)SC)cc1` (configuration not stated): the inhibition was inactive: -2.78%.
The result for `O=C(O)C(=O)c1ccc(N(CCCl)CCCl)cc1` reads inactive: -5.33%; that for `O=C(Nc1ccncc1[N+](=O)[O-])c1ccc([N+](=O)[O-])cc1[N+](=O)[O-]`, inactive: -0.23%.
Then `O=C(COc1ccccc1)OC1CN2CCC1CC2` (configuration not stated), with inactive: -3.9%; and `COC(=O)C1(C)COP(=O)(N2CCCC2)OC1` (configuration not stated), with inactive: 4.16%; and `COP1(=S)c2c(C)nn(CCC#N)c2N=C(c2ccc(F)cc2)N1C` (configuration not stated), with inactive: 0.27%.
Turning to `O=P(Nc1ccccn1)(c1cccc2ccccc12)c1cccc2ccccc12`, the inhibition is inactive: 5.67%.
Then `Cc1cc(SC(NC=O)C(Cl)(Cl)Cl)ncn1` (configuration not stated), with inactive: 0.78%; and `O=[N+]([O-])c1ccc(Nc2ccc(Oc3ccc([N+](=O)[O-])cc3[N+](=O)[O-])cc2)c([N+](=O)[O-])c1`, with inactive: 1.14%.
Take `CCOC(=O)Nc1cccc([As](=O)(O)O)c1`: the inhibition is inactive: 1.92%.
Consider `COP(=O)(OC)N1CC1c1ccccc1` (configuration not stated), for which the inhibition is inactive: -3.52%.
The result for `Cc1cc(SC(NC(=O)c2ccccc2)C(Cl)(Cl)Cl)nc(C(C)C)n1` (configuration not stated) reads inactive: 2.78%; that for `CCCCOc1ccc(C(=O)NCC2(N3CCCCC3)CCCCC2)cc1OC`, inactive: 1.28%.
Then `CCOC(=O)Nc1ccc([As](=O)(O)O)c(O)c1`, with inactive: -2.73%.
As to `O=C(O)C(O)c1ccc(N(CCCl)CCCl)cc1` (configuration not stated), the inhibition is inactive: -0.41%.
As for `CC1CCNP(=O)(N(CCCl)CCCl)O1` (configuration not stated), the inhibition was inactive: 1.92%.
